Experimental findings from patent publication US20180325850A1, “VALPROIC ACID FOR TREATMENT OF MYOCARDIAL ISCHEMIA” (The Regents of the University of Michigan, priority 2017, published 2018) are described below.

Each structure is given as a SMILES string.

This experiment concerns MI rats generated by ischemia reperfusion. In words: Myocardial infarct size by triphenyltetrazolium chloride (TTC) staining. Type of experiment: in vivo, rat. The note with it: IR rats; 250 mg/kg VPA i.p. twice; TTC staining 24 h after injury. The protocol:
Myocardial infarct size was determined by triphenyltetrazolium chloride (TTC) staining. The hearts were frozen rapidly and sliced into five 2 mm transverse sections. The sections were incubated at 37° C. with 1% TTC in phosphate buffer (pH 7.4) for 10 min, fixed in 10% formaldehyde solution, photographed and calculated using ImageJ software. The infarct size was expressed as a percentage of infarct volume versus left ventricle volume.

Take `CCCC(CCC)C(=O)O` [VPA, valproic acid]: the “infarct size (infarct volume versus left ventricle volume)” value is recorded as 19.14±2.89 % of the left ventricle.
